# Ab-14 heavy chain CDR variants: yeast mating affinities

Binding partner: SARS-CoV-2 spike HR2 peptide, sequence PDVDLGDISGINAS.

Parent scFv Ab-14: VH joined to VL by the linker GGGGSGGGGSGGGGS. Changes lie in the heavy chain CDRs alone.
VH: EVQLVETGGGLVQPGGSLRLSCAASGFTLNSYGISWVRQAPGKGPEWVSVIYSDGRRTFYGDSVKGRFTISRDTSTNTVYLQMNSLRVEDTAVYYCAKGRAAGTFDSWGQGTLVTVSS
VL: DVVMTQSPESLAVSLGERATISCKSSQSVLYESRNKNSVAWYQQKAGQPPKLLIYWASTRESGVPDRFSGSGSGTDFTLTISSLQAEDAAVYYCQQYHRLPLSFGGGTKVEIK

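The starting antibody came from a phage panning campaign against this peptide. In library AAYL49, one, two or three CDR residues were substituted; doubles and triples were drawn at random. The assay is AlphaSeq: two haploid yeast populations carry antibody and antigen on their surface. The frequency of each diploid, read from paired DNA barcodes, reflects how well the two displayed proteins bind. A regression on co-assayed BCL2-family reference pairs converts the normalised counts of each replicate to an apparent Kd. There are three technical replicates.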

Variants are written as CDR1, CDR2 and CDR3 of the heavy chain (limits as in the source). Parent: GFTLNSYGIS, VIYSDGRRTFYGDSVK, GRAAGTFDS. This list gathers variants with a substitution at Y32 (VH, numbered from residue 1). Affinities are written as log10 Kd with Kd in nM; a lower number is a better binder. A mean of the replicates is given; it leaves out those without a signal. "not detected" marks a missing value. The strain was present, yet no cells mated with the target were sequenced in any replicate, which points to weak or no binding. Parent in this assay: reference entry 0.65, copy in this library 4.11 (one replicate of three). Empty control strains, which show no peptide, gave a signal in 15% of pairings with library AAYL49; the median was 4.06 and 95% of these signals were weaker than 2.83. No background was subtracted.

| CDR-H1 | CDR-H2 | CDR-H3 | mean, log10 nM | replicates with signal |
|---|---|---|---|---|
| GPTLNSDGIS | VIYSDGRRTFYGDSEK | GRAAGTFDS | not detected | 0/3 |
| GFTLNSFGIS | VIYSDGSRTFYGDSVK | GRAAGTFWS | 2.00 | 3/3 |
| GFTLNSEGIS | VITSDGRRTFYGDSVK | GRAAGTFDS | 2.91 | 3/3 |
| GFTLQSVGIS | VIYSDGRRTFYNDSVK | GRAAGTFDS | 4.12 | 3/3 |
| GFTLNSEGIS | VIYSDGRRTMYGDSVK | GRAAGTFDS | 4.45 | 1/3 |
| GFTLNSGGIS | VIYSFGRRTFYGDSVK | GRAAGTFPS | 5.11 | 1/3 |
| GFTLNSAGIS | VIYSDGRRTFYGDSVK | GKYAGTFDS | not detected | 0/3 |
| GFDLNSDGIS | VIYSDGRRTFYGDSVK | GRAAKTFDS | not detected | 0/3 |
| GFTLNSDGIS | HIYSDGRRTFYGDSVV | GRAAGTFDS | 5.16 | 3/3 |
| GFTLNSWAIS | VIYSDGRRTFYGDSVK | GRAAGAFDS | not detected | 0/3 |
| GFTLNSTGIS | VIYSDGRRTFYGDSVK | GRAAGTFDS | 3.35 | 3/3 |
| GFTLNSTGIS | VIPSDGRRTFYGDSVF | GRAAGTFDS | 4.91 | 1/3 |
| GFTLNSLGIS | AIYSDGRRTFYGNSVK | GRAAGTFDS | not detected | 0/3 |
| GFTLNSRGIS | VIYSDGRRTFYGDSVK | GREAGWFDS | not detected | 0/3 |
| GFTLNSEGIS | VIYSDGRRTFYGDSVK | GRAIQTFDS | 5.20 | 1/3 |
| GFTLNSAGIS | VIYSDGRRTFYGDSVK | GRAVGSFDS | 3.22 | 1/3 |
| GFTLNSAGIS | VIYSDGRGTFYGDSVK | GRAAGTNDS | 4.10 | 1/3 |
| GFCLNSFGIS | VIYSDGRRTGYGDSVK | GRAAGTFDS | 2.83 | 3/3 |
| VFTLNSTGIS | VFYSDGRRTFYGDSVK | GRAAGTFDS | not detected | 0/3 |
| GFTLNSIGIS | VIYSDGCRTFYLDSVK | GRAAGTFDS | 4.28 | 2/3 |
| GFHLNSDLIS | VIYSDGRRTFYGDSVK | GRAAGTFDS | 4.10 | 2/3 |
| GGTLNSRGIS | VIYSDGRRTFYYDSVK | GRAAGTFDS | 3.00 | 1/3 |
| GFTLNSKGIS | VIYQDGRRTFYGFSVK | GRAAGTFDS | 3.86 | 1/3 |
| GMTLNSNGIS | VIYSDGRRTFYGDSVK | GRAAGKFDS | 4.32 | 3/3 |
| YFTLNSCGIS | VIYSDGRRTFYGDSVK | GRYAGTFDS | 4.72 | 1/3 |
| GFTLNSFGIS | VIYSDGRRTFYGDSVK | GRSAGTFDN | 1.73 | 3/3 |
| GFTLNSMGIV | VIYSDGRRTFYGDLVK | GRAAGTFDS | 4.60 | 2/3 |
| HFTLNSPGIS | VIYSDGRRTFDGDSVK | GRAAGTFDS | not detected | 0/3 |
| GFTLNSTGIS | VIYSDGRQTFYGDSDK | GRAAGTFDS | 4.13 | 2/3 |
| GFTLNSTGIS | VIYGDGRRTFYGHSVK | GRAAGTFDS | 4.65 | 2/3 |
| GFTLNSLGIS | VIYSDGRRTFYGDSVK | GRNAGTFDF | 2.23 | 3/3 |
| GFGLNSLGIS | VIYSDGRRTFYHDSVK | GRAAGTFDS | 1.93 | 3/3 |
| GFTLNSFGIS | VIYSDGRRTFYGDSVK | GRASGTFTS | 2.29 | 3/3 |
| GFTLNSVMIS | VIYSDGRRTFYGDSVK | GRAAGTFDS | not detected | 0/3 |
| GFTPNSGGIS | VIYSDGPRTFYGDSVK | GRAAGTFDS | 4.39 | 3/3 |
| GFTLNSKGIS | VIYSDGRRGFEGDSVK | GRAAGTFDS | not detected | 0/3 |
| RFTLNSGGIS | WIYSDGRRTFYGDSVK | GRAAGTFDS | 4.06 | 1/3 |
| GFTLNSQGIS | VIYSWGRRTFYGDSVK | GRAAGTFDC | 3.53 | 2/3 |
| GFTLNSGGIS | VIYSDGRRTFYRDSVK | GRAAGTFDV | 4.89 | 1/3 |
| GFTLNSQGIS | VIYSPGRRTFYGDSVK | GRAAGCFDS | 4.52 | 2/3 |
| GFTLNSEGIS | VIYSDGRRTFYGDSVK | GIAAGEFDS | not detected | 0/3 |
| GFTLNSPGPS | VIYSDGRRTFYDDSVK | GRAAGTFDS | not detected | 0/3 |
| GFTLNSHGIS | VIYSEGKRTFYGDSVK | GRAAGTFDS | 4.01 | 2/3 |
| GFTLNSCGIS | VIYSDGRRTFYGDMVK | HRAAGTFDS | not detected | 0/3 |
| GFTLNSVGIL | VIYSDGRRTFYGDSVK | GHAAGTFDS | 3.89 | 2/3 |
| GFKLNSNGIS | VIYSGGRRTFYGDSVK | GRAAGTFDS | not detected | 0/3 |
| GFTLNSPGIS | VIYSDGRRTFYDDSVK | GEAAGTFDS | not detected | 0/3 |
| GFTLNSLGIS | VIYSDGRGTFYGDSVK | TRAAGTFDS | not detected | 0/3 |
| GFTLNSCGIS | VIYSDGRRTFYGDSVK | GRAMGTFDW | 4.74 | 1/3 |
| GFTLNSTGIS | VIYSDGRRTFGGDSVK | GRAAGTFRS | not detected | 0/3 |
| GFTLNSCGIS | VIISDGRRTFYGDSVK | GRAAGTFDV | not detected | 0/3 |
| GFLLNSLGIS | VIYSDGRRTFYGDSVK | ARAAGTFDS | 1.94 | 3/3 |
| GFTLNSTGMS | VIYSDGRRTFYGDSVK | GRAAGTEDS | 4.58 | 2/3 |
| GFTLNSTGIS | VIYSDGRRTFYGISVK | GRAAGTFDS | not detected | 0/3 |
| GFTYLSSGIS | VIYSDGRRTFYGDSVK | GRAAGTFDS | 4.35 | 2/3 |
| GFTLNSKGIS | VIYSDGRNTFYGDSVK | GRRAGTFDS | 4.13 | 1/3 |
| GFTLNSMGIS | VIYSDGRRTFYGDSPK | GRAAGTFMS | 3.52 | 1/3 |
| GFTLNSHGIS | VIYSDGRRTFYGDSVK | GRSQGTFDS | 3.85 | 2/3 |
| GFTLNSNGIS | VIYSDGRRTFYHDSVK | GRAAGTFDS | 2.73 | 3/3 |
| GFTLNSHGIS | VIYSDGRRTFYGDSVF | LRAAGTFDS | 4.11 | 1/3 |
| HFTLNSRGIS | VIYSDGRREFYGDSVK | GRAAGTFDS | not detected | 0/3 |
| GFTLNSLGIS | QIYSDGRRGFYGDSVK | GRAAGTFDS | not detected | 0/3 |
| GFTLNSHGIS | VIYYDGRRTFYGDSCK | GRAAGTFDS | not detected | 0/3 |
| EFTLNSQGRS | VIYSDGRRTFYGDSVK | GRAAGTFDS | 5.78 | 1/3 |
| GFTLNSEGIS | VIRSDGRRTFYGDSVK | GRAAGTFKS | not detected | 0/3 |
| GFTLNSEGIS | QIYSDGRDTFYGDSVK | GRAAGTFDS | not detected | 0/3 |
| GFTLNSFGIS | VIYSDGCRTFYGDSVK | YRAAGTFDS | not detected | 0/3 |
| GFTCNSSGIS | VIYSDGRRTFYGDSVK | ARAAGTFDS | 5.30 | 3/3 |
| GFTLNSHGIS | VIYSNGRRTFYGDSVK | GREAGTFDS | 3.61 | 3/3 |
| GFTLNSMGIS | VIYSDGRRTIYGDDVK | GRAAGTFDS | not detected | 0/3 |
| GFTLNSVGIS | VIYEDGRRTFYGDSVK | GRAAGTFDS | not detected | 0/3 |
| GFTLNSVGIS | VIYSDGRRTFYFDSMK | GRAAGTFDS | 1.81 | 1/3 |
| GFTLNSTGIK | SIYSDGRRTFYGDSVK | GRAAGTFDS | 4.53 | 2/3 |
| GFTLNSKGIS | VIYSDGRRTFYGDSVK | GRAAGVQDS | not detected | 0/3 |
| GFTLNSRGIS | VIYSDGRRTFYGLSVK | GRAAGTFSS | 5.20 | 1/3 |
| CFTLNSTGIS | VIYSHGRRTFYGDSVK | GRAAGTFDS | not detected | 0/3 |
| GFTLNSKGIS | VIYSDGRRTFYGFSVL | GRAAGTFDS | 3.89 | 2/3 |
| GFTLNSCGIT | VNYSDGRRTFYGDSVK | GRAAGTFDS | not detected | 0/3 |

The first 11 variants above that were never detected:

| CDR-H1 | CDR-H2 | CDR-H3 | mean, log10 nM | replicates with signal |
|---|---|---|---|---|
| GPTLNSDGIS | VIYSDGRRTFYGDSEK | GRAAGTFDS | not detected | 0/3 |
| GFTLNSAGIS | VIYSDGRRTFYGDSVK | GKYAGTFDS | not detected | 0/3 |
| GFDLNSDGIS | VIYSDGRRTFYGDSVK | GRAAKTFDS | not detected | 0/3 |
| GFTLNSWAIS | VIYSDGRRTFYGDSVK | GRAAGAFDS | not detected | 0/3 |
| GFTLNSLGIS | AIYSDGRRTFYGNSVK | GRAAGTFDS | not detected | 0/3 |
| GFTLNSRGIS | VIYSDGRRTFYGDSVK | GREAGWFDS | not detected | 0/3 |
| VFTLNSTGIS | VFYSDGRRTFYGDSVK | GRAAGTFDS | not detected | 0/3 |
| HFTLNSPGIS | VIYSDGRRTFDGDSVK | GRAAGTFDS | not detected | 0/3 |
| GFTLNSVMIS | VIYSDGRRTFYGDSVK | GRAAGTFDS | not detected | 0/3 |
| GFTLNSKGIS | VIYSDGRRGFEGDSVK | GRAAGTFDS | not detected | 0/3 |
| GFTLNSEGIS | VIYSDGRRTFYGDSVK | GIAAGEFDS | not detected | 0/3 |

The measurements come from Engelhart et al. 2022 (doi:10.1038/s41597-022-01779-4) through the FLAb antibody collection.